Measurements reported in ChEMBL document CHEMBL5442175, “EUbOPEN Chemogenomics Library - PDSP Secondary Binding” (2024).

The chains behind the UniProt entries cited, without tags or fusion partners. Where a name states a change or a piece, a line headed by the entry shows the natural chain unless it says otherwise.
UniProt P28221: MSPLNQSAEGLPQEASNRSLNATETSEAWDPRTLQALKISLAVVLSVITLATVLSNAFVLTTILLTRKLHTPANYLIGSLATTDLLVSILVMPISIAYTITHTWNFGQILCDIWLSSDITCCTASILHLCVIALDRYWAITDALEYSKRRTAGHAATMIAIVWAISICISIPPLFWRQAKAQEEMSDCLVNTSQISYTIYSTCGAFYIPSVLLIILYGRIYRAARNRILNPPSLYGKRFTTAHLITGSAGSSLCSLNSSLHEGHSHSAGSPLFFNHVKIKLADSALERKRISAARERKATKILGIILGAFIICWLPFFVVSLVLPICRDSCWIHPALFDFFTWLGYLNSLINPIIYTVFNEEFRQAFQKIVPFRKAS
UniProt P34969, whole entry, looked up: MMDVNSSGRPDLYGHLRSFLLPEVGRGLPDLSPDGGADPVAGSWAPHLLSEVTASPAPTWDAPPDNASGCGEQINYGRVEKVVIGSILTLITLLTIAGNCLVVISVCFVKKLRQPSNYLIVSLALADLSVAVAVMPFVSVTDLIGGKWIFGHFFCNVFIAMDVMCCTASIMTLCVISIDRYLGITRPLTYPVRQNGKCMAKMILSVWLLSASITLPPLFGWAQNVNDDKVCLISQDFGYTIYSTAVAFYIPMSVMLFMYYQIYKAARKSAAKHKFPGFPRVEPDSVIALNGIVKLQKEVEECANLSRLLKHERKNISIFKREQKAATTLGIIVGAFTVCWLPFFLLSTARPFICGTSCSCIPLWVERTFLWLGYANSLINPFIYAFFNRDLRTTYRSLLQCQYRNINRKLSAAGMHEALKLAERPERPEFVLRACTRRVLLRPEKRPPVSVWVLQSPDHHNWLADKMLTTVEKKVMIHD
UniProt Q01959, whole entry, looked up: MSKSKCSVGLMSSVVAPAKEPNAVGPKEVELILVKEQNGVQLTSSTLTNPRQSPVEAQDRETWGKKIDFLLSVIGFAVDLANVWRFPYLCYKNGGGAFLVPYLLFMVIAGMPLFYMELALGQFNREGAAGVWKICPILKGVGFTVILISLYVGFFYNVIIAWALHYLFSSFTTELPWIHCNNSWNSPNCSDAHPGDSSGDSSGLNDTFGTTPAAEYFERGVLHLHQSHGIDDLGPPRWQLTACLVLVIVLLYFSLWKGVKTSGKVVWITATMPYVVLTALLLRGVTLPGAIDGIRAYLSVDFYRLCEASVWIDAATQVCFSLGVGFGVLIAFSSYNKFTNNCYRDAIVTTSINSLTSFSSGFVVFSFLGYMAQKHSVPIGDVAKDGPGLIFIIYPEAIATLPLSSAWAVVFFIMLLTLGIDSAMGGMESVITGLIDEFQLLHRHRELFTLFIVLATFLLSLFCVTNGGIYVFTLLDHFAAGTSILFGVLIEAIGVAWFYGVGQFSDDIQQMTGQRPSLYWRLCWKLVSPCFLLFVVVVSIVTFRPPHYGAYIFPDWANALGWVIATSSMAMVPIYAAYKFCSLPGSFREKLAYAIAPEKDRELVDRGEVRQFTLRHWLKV
UniProt Q5BJF2, whole entry, looked up: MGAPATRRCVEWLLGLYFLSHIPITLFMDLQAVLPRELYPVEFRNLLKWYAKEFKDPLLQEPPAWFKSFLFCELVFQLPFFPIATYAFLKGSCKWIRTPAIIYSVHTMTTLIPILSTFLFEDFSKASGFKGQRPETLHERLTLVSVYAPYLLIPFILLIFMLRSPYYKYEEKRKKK
UniProt P21917, whole entry, looked up: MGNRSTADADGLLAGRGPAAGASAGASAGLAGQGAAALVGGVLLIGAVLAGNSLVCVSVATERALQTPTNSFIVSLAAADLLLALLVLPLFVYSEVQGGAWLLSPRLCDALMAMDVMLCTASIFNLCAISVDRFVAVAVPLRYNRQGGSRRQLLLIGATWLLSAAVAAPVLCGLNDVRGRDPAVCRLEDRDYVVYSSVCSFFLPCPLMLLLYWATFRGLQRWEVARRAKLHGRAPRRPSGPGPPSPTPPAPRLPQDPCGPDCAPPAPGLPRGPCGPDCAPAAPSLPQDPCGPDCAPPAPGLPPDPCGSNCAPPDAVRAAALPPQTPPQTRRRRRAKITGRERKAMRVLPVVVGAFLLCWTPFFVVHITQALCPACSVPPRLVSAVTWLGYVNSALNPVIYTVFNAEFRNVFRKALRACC
UniProt P31645, whole entry, looked up: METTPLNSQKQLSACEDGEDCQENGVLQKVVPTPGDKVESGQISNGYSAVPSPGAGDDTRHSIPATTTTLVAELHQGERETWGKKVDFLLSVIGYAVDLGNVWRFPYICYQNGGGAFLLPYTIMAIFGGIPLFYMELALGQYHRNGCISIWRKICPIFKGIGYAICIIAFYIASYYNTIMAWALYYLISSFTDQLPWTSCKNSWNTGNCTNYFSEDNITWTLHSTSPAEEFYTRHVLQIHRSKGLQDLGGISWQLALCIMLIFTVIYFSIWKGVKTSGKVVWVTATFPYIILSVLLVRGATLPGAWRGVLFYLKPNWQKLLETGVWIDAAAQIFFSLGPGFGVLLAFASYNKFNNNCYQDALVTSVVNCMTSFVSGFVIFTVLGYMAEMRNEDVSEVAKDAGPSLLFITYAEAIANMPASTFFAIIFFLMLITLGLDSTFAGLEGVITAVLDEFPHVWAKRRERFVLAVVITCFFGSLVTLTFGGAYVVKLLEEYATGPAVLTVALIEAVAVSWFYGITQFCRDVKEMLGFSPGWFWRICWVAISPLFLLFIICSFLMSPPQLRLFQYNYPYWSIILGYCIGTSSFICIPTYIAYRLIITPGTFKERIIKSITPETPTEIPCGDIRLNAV
UniProt P35368, whole entry, looked up: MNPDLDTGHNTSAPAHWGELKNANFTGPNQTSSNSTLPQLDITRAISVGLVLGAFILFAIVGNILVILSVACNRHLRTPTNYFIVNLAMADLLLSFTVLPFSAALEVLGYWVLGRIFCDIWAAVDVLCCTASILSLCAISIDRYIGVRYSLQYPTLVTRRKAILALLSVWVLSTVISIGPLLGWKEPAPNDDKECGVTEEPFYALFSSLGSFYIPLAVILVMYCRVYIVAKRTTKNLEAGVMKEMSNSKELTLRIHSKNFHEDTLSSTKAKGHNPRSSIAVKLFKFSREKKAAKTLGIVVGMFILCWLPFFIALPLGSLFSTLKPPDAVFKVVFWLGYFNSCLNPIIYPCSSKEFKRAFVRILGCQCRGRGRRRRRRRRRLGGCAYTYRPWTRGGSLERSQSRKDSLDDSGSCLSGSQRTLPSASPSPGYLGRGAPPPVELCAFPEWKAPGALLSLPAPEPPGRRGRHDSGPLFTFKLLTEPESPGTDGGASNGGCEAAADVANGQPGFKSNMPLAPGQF
UniProt P08913, whole entry, looked up: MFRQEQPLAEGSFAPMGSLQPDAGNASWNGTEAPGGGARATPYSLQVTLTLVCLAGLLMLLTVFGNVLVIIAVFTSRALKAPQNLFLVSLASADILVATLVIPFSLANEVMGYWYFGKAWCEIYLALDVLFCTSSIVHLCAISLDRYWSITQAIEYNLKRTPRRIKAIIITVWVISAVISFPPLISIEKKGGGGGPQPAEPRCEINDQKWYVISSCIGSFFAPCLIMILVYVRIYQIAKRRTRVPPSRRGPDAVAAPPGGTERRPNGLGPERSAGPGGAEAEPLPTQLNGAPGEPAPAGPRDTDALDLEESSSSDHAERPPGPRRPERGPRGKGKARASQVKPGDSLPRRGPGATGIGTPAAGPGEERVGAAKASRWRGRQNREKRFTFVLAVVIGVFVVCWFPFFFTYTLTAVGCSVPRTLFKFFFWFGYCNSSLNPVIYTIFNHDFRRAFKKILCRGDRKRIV
UniProt P18825, whole entry, looked up: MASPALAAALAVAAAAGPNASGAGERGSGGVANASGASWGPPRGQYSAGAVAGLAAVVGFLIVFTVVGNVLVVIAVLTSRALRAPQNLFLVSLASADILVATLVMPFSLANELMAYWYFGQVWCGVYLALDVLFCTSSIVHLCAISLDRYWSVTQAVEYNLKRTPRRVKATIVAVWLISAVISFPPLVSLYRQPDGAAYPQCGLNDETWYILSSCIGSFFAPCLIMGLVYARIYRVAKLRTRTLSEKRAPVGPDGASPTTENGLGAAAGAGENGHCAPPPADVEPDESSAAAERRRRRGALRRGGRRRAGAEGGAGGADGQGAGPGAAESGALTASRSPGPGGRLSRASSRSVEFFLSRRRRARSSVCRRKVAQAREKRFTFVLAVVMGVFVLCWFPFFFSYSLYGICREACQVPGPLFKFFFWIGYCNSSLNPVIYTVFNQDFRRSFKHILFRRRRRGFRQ
UniProt P35462, whole entry, looked up: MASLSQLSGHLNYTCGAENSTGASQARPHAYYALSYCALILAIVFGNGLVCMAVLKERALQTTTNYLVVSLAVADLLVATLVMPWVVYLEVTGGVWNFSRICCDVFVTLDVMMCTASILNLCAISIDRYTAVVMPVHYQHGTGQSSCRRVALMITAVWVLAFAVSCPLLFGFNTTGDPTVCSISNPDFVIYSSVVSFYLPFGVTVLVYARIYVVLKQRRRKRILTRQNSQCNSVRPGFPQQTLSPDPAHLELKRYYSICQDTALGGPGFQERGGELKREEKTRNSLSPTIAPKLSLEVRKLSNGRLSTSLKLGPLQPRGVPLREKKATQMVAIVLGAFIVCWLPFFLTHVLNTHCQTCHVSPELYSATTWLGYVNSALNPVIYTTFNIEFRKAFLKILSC
UniProt P25100, whole entry, looked up: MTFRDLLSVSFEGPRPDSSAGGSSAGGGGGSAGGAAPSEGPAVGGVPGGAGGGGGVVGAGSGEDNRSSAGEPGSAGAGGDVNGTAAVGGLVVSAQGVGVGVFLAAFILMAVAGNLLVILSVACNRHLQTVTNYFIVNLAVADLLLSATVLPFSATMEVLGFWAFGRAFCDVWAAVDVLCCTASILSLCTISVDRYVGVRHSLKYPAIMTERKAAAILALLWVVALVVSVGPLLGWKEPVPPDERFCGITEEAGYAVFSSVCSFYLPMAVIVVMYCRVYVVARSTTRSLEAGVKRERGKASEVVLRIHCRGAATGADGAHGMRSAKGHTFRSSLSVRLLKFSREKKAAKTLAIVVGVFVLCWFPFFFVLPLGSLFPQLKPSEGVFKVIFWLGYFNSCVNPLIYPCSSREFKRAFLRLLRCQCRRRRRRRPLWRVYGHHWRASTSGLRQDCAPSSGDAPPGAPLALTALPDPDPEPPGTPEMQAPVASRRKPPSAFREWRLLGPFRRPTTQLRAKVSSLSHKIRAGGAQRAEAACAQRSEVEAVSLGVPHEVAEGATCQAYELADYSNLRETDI
UniProt P35348: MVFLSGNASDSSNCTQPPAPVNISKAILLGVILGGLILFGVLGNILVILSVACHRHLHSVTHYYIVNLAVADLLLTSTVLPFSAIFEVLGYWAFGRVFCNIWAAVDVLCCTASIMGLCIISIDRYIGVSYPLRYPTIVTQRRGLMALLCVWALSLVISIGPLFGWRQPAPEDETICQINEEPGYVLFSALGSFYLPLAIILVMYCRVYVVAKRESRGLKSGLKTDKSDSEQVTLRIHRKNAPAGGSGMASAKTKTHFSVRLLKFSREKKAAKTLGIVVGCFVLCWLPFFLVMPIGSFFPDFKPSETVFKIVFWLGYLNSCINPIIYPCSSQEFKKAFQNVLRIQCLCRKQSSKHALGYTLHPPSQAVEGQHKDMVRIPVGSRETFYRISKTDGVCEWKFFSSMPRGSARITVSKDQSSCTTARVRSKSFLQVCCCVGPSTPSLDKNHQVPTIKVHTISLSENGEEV
UniProt P35367, whole entry, looked up: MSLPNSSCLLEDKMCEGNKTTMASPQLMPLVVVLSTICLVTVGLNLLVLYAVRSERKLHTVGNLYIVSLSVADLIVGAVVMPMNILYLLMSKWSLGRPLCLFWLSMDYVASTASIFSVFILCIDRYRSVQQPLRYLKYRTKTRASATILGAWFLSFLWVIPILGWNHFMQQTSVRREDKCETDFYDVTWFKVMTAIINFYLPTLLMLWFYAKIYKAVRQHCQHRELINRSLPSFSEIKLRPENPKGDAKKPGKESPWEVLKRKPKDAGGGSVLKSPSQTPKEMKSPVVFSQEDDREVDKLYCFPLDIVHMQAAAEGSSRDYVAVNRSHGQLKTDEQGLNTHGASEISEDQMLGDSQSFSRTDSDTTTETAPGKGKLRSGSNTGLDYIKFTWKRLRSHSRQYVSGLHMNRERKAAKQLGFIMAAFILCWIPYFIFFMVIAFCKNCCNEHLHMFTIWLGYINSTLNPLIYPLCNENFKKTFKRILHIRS
UniProt P50406, whole entry, looked up: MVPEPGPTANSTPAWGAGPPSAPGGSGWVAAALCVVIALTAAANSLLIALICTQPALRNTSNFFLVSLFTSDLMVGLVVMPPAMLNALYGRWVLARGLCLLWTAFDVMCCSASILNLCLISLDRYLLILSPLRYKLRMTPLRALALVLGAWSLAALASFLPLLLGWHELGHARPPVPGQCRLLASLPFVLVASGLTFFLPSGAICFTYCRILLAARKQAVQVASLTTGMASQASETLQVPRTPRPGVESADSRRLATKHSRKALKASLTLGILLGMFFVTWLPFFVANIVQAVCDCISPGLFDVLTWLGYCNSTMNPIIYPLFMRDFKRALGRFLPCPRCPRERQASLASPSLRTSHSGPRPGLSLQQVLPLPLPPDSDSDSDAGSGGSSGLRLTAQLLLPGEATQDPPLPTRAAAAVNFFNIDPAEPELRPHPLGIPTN

Tests used:
[1] = target: Muscarinic acetylcholine receptor M5 (Homo sapiens, UniProt P08912); test: PDSP Secondary Binding target: CHRM5 - Compounds are tested at 10 uM concentration, plate are incubated at room temperature in the dark for 90 minutes. Reaction are stopped by vacuum filtration onto 0.3% polyethyleneimine soaked filter mats using Filtermate harvester. Scintillation cocktail is then melted onto microwave-dried filters on a hot plate and the radio activity is counted in Microbia cou
[2] = target: 5-hydroxytryptamine receptor 1A (Homo sapiens, UniProt P08908)
[3] = target: 5-hydroxytryptamine receptor 1D (Homo sapiens, UniProt P28221)
[4] = target: 5-hydroxytryptamine receptor 7 (Homo sapiens, UniProt P34969)
[5] = target: Sodium-dependent dopamine transporter (Homo sapiens, UniProt Q01959)
[6] = target: Sigma intracellular receptor 2 (Homo sapiens, UniProt Q5BJF2)
D(4) dopamine receptor = D(4) dopamine receptor (Homo sapiens, UniProt P21917)
[7] = target: Sodium-dependent serotonin transporter (Homo sapiens, UniProt P31645)
[8] = target: Alpha-1B adrenergic receptor (Homo sapiens, UniProt P35368)
[9] = target: Alpha-2A adrenergic receptor (Homo sapiens, UniProt P08913)
[10] = target: Alpha-2B adrenergic receptor (Homo sapiens, UniProt P18089)
[11] = target: Alpha-2C adrenergic receptor (Homo sapiens, UniProt P18825)
D(3) dopamine receptor = D(3) dopamine receptor (Homo sapiens, UniProt P35462)
[12] = target: Alpha-1D adrenergic receptor (Homo sapiens, UniProt P25100)
[13] = target: Alpha-1A adrenergic receptor (Homo sapiens, UniProt P35348)
Histamine H1 receptor = Histamine H1 receptor (Homo sapiens, UniProt P35367)
[14] = target: 5-hydroxytryptamine receptor 6 (Homo sapiens, UniProt P50406)
[15] = target: Beta-1 adrenergic receptor (Homo sapiens, UniProt P08588)
D(2) dopamine receptor = D(2) dopamine receptor (Homo sapiens, UniProt P14416)
[16] = target: 5-hydroxytryptamine receptor 5A (Homo sapiens, UniProt P47898)
[17] = target: Sodium-dependent noradrenaline transporter (Homo sapiens, UniProt P23975)
[18] = target: Kappa-type opioid receptor (Homo sapiens, UniProt P41145)
Mu-type opioid receptor = Mu-type opioid receptor (Homo sapiens, UniProt P35372)
[19] = target: 5-hydroxytryptamine receptor 2A (Homo sapiens, UniProt P28223)

For O=C1NCN(c2ccccc2)C12CCN(CCCOc1ccc(F)cc1)CC2, the Ki [1] was 1310 nM, the Ki [2] was 389 nM and the Ki [3] was 1290 nM. For the same molecule, the Ki [4] was 335 nM, the Ki [5] was 2750 nM and the Ki [6] was 899 nM. It also gave a Ki (D(4) dopamine receptor) of 4.64 nM, a Ki [7] of 210 nM and a Ki [8] of 296 nM. For the same molecule, the Ki [9] was 2280 nM, the Ki [10] was 294 nM and the Ki [11] was 764 nM. The Ki (D(3) dopamine receptor) was 32.8 nM, the Ki [12] was 382 nM and the Ki [13] was 405 nM. The Ki (Histamine H1 receptor) was 308 nM, the Ki [14] was 405 nM and the Ki [15] was 3130 nM. The Ki (D(2) dopamine receptor) was 9.62 nM.

O=C1NCN(c2ccccc2)C12CCN(CC1COc3ccccc3O1)CC2 (centres undefined) showed a Ki [16] of 3800 nM, a Ki [4] of 66.1 nM and a Ki [17] of 2610 nM. It also gave a Ki [6] of 1010 nM, a Ki (D(4) dopamine receptor) of 19.4 nM and a Ki [18] of 711 nM. For the same molecule, the Ki (Mu-type opioid receptor) was 12.8 nM, the Ki [8] was 319 nM and the Ki [9] was 617 nM. The Ki [11] was 8.55 nM, the Ki (D(3) dopamine receptor) was 7.74 nM and the Ki [12] was 139 nM. It also gave a Ki [13] of 446 nM, a Ki [19] of 702 nM and a Ki (D(2) dopamine receptor) of 6.71 nM.
